Measured values from patent publication US20170174632A1, “4-OXO-1, 4-DIHYDROQUINOLINE-3-CARBOXAMIDE AS SELECTIVE LIGAND FOR CANNABINOID RECEPTOR 2 FOR DIAGNOSIS AND THERAPY” (priority 2014, published 2017).

The chains behind the UniProt entries cited, without tags or fusion partners.
UniProt P34972, whole entry: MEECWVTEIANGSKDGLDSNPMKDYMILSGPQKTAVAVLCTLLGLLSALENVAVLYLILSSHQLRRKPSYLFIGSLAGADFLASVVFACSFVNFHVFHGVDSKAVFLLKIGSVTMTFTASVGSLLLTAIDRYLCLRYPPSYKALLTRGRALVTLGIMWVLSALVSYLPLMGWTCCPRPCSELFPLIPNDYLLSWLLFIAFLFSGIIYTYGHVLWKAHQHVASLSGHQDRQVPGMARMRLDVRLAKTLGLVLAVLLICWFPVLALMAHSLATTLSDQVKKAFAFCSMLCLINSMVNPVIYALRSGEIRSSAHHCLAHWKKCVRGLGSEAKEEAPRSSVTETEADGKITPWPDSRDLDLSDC

Target: CB2 (Homo sapiens, UniProt P34972)
Assay: In vitro competitive binding assay, [3H]CP55,940 displacement, hCB2 membranes
Design: purchased PerkinElmer; host or cells: CHO-K1 cells, stably transfected (membrane preparation)
Settings: CHO-K1 membranes with human CB2, 1.4 nM [3H]CP55,940, Cheng-Prusoff, three experiments in triplicates; read-out: KiCB2
Experimental: The following test was carried out in order to determine the binding affinity of the compounds of formula I towards CB2 and CB1: […]
Competitive binding reactions were initiated by the addition of a membrane preparation obtained from CHO-K1 cells stably transfected with human CB1 and CB2, respectively, from PerkinElmer (0.5 pig/tube for hCB1 and hCB2) into incubation tubes. As displacer, 1.4 nM [^3H]CP55,940 (PerkinElmer) was used and 6 to 10 concentrations (ranging from 1 pM to 10 μM) of displacing ligand (compound to test) in assay buffer (50 mM TRIS, 1 mM EDTA, 3 mM MgCl2 and 0.05% bovine serum albumin, pH adjusted to 7.4) were added. Nonspecific binding was defined by the presence of 5 μM WIN-55212-2. After incubation at 30° C. for 90 min reactions were terminated by the addition of 3 mL ice cold assay buffer followed by rapid vacuum filtration through a Whatman GF/C filter (pre-soaked for 2 h in 0.05% polyethylenimine in water) and washed twice with 3 mL ice cold assay buffer. The bound activity was counted in a Beckman LS 6500 Liquid Scintillation Counter after adding 3 mL scintillation cocktail (Ultima Gold, Perkin Elmer) and thorough shaking. For each mean value three experiments, each in triplicates, were performed. K, values were determined with the equation from Cheng-Prusoff.

For `CCOCCn1cc(C(=O)NC23CC4CC(CC(C4)C2)C3)c(=O)c2cccc(OC)c21` [RS-016, N-(1-adamantyl)-1-(2-ethoxyethyl)-8-methoxy-4-oxo-1,4-dihydroquinoline-3-carboxamide], the Ki was 700 ± 600 pM.
